Key:
[1] = test system: TS1β cells (TS1 cells transfected with human IL-2Rβ); assay: TS1β cell proliferation assay; assay type: cell-based, murine
[2] = test system: Shc; assay: Shc tyrosine phosphorylation, Western blot in Kit 225 cells; assay type: cell-based, human; settings: p1–30 60 μM for 1–15 min, IL-2 for 5 min
[3] = test system: p56^lck; assay: p56lck in vitro kinase assay; assay type: cell-based, human; settings: Kit 225 cells stimulated 15 min with 10 nM IL-2 or 60 μM p1–30
[4] = test system: Jak1; assay: Jak1 tyrosine phosphorylation, immunoprecipitation/Western blot in Kit 225 cells; assay type: cell-based, human; settings: Kit 225 cells stimulated 10 min; IL-2 10 nM, p1–30 60 μM
[5] = test system: Jak3; assay: Jak3 tyrosine phosphorylation, immunoprecipitation/Western blot in Kit 225 cells; assay type: cell-based, human; settings: Kit 225 cells stimulated 10 min; IL-2 10 nM, p1–30 60 μM
[6] = test system: Jak2; assay: Jak2 tyrosine phosphorylation, immunoprecipitation/Western blot in Kit 225 cells; assay type: cell-based, human; settings: Kit 225 cells stimulated 10 min; IL-2 10 nM, p1–30 60 μM
[7] = test system: PBMCs; assay: PBMC proliferation; assay type: cell-based; settings: human PBMCs, IL-2 0.5 nM or p1–30 3–100 μM, 3 or 6 d
[8] = test system: PBMC subsets (CD4, CD8, CD20, CD56); assay: CD69 expression on PBMC subsets; assay type: cell-based, human; settings: PBMCs stimulated with IL-2 (0.5 nM) or p1–30 (10, 30 or 100 μM) for 1, 2 or 3 d
[9] = target: high affinity IL-2R (all three chains); settings: read-out: K d for high affinity IL-2R; expression of all three chains; cited from earlier work
[10] = target: (IL-2Rβ)2; settings: read-out: K d of IL-2 for free (IL-2Rβ)2 complexes; stated in discussion; cited from earlier work

IL-2: human rIL-2 (Chiron)
proliferative response ([3H]TdR incorporation) ([1]; 1 nM IL-2 alone): 38,148 cpm | proliferative response ([3H]TdR incorporation) ([1]; 10 nM IL-2 alone): 72,370 cpm | Shc (p47, p52) phosphorylation [2]: induced Shc phosphorylation | p56^lck kinase activity (enolase phosphorylation) [3]: induced the kinase activity of p56^lck | Jak1 phosphorylation [4]: induced the phosphorylation | Jak3 phosphorylation [5]: induced the phosphorylation | Jak2 activation [6]: unable to activate Jak2 | PBMC proliferation over time [7]: more efficient by day 3 but declined by day 6 | CD69 expression on PBMC subsets [8]: induced CD69 expression on these populations | Kd [9]: ~0.01 nM | Kd [10]: 100 nM

— PMC2195822 (The Journal of Experimental Medicine, 2000)
